Values of other authors, collected in publication PMC12458545, “Repurposing a Detrimental Antibody Epitope as Targeted Therapeutics for Sepsis and Rheumatoid Arthritis” (Research Square, 2025).

Tested on: CLP-induced sepsis
Conditions: repetitive buprenorphine use in CLP; cited from earlier work

buprenorphine [reference compound]
sepsis surrogate markers and lethality: could paradoxically elevate sepsis surrogate markers and increase animal lethality
